# E-sel inducer: E-selectin induction on HUVECs; HUVEC E-selectin immunofluorescence imaging; normalized: neutral wells 0, TNF-alpha wells 100; activation, % at 7.58 µM; 260,000 tested, 0.37% active; AID 686992;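 active means mean E-selectin-positive cell signal at least 10% of the positive control, reached in at least 60% of replicates, without over 20% cell loss; inconclusive means no rule given, readout overlaps actives, possibly toxicity-flagged; inactive means the rest, including those meeting only one limit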
#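 Material: HUVEC primary endothelial cells; Amount: 3,000 cells per well; Dosing: single concentration; Medium: EGM-2 growth medium on 0.1% gelatin-coated wells; Read-out basis: percent E-selectin-positive cells; Signal: immunofluorescence imaging; Control set: TNF-alpha, DMSO.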
# Cneo AK release: causes C. neoformans cell lysis; adenylate kinase release luminescence, 4 h; normalised: neutral wells 0, clomiphene wells 100; lysis activity, % at 15 µM; 360,000 tested, 0.2% active;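 active means mean lysis activity across replicates of at least 80%, whatever share of replicates individually reach that level; inactive means mean lysis activity below 80%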
#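 Material – Cryptococcus neoformans yeast cells · Quantity – 5 × 10^6 yeast cells/mL · Buffer or medium – YPD medium · Compound – single dose · Timing – 4 h static compound exposure, 37 °C, read 1 h post-reagent · Signal – adenylate kinase release luminescence · Read-out basis – lysis from increased AK signal · Benchmarks – Clomiphene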
# UUG fidelity: modulators of yeast start codon fidelity, primary screen, whole organism, S. cerevisiae, single point, plate reader | AID 602363, 2012 | S. cerevisiae UUG-firefly luciferase reporter, luminescence/redox ratio | activity score, % at 18.7 µM | hit rate 0.13% among 350,000;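 active = replicate mean at a twofold rise or more, about +100% in these data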;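 also: firefly luciferase made from a UUG start codon reports start codon fidelity; reporter light over untreated wells divided by growth signal over untreated wells; some hits fall short of that in this replicate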
# DENV2 CPE rescue: protects cells from dengue virus 2 cytopathic effect; DENV2-infected cells, cytopathic effect rescue, plate reader; CPE inhibition, % at 9.99 µM; 350,000 tested, 1.7% active; in the data active means CPE inhibition above about 20%, passing the limit was not always enough; inconclusive means no clear call, values can overlap the other calls; tested in BHK-21 cells;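 further: 0% = median of neutral control wells and 100% = median of positive control wells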
# * marks the source's active call; other numbers are inactive results; ? = inconclusive; . = not tested or not shown; ! = not active in a repeat. An excerpt weighted towards active compounds, which were near 1.8% of everything screened.
SMILES,E-sel inducer,Cneo AK release,UUG fidelity,DENV2 CPE rescue
O=C1C=C(c2cccc(Br)c2)C[C@@H](c2ccc(Cl)cc2)C1,0,2,-17,32*
COc1ccc([C@H]2CC(=O)C=C(c3ccc(CNC(=O)OC(C)(C)C)cc3)C2)cc1,30*,-7,-25,-9
Cc1noc(C)c1NC(=O)Nc1cccc2c1O[C@@H](CN(C)C(=O)NC1CCCCC1)[C@@H](C)CN([C@@H](C)CO)C2=O,0,-1,-8,11
COc1cc(F)cc(C2=CC(=O)C[C@H](c3ccc(F)cc3)C2)c1,0,-1,11,26*
C[C@@H]1CN([C@@H](C)CO)C(=O)c2cc(NS(=O)(=O)c3ccc(F)cc3)ccc2O[C@H]1CN(C)S(=O)(=O)c1cccs1,1,-2,5,46*
C[C@H](CO)N1C[C@H](C)[C@H](CN(C)S(=O)(=O)c2cccs2)Oc2ccc(NC(=O)Nc3ccc(F)cc3)cc2C1=O,.,4,.,8
C[C@@H]1CN([C@@H](C)CO)C(=O)c2cc(NS(=O)(=O)c3cccs3)ccc2O[C@@H]1CN(C)S(C)(=O)=O,154*,-2,-4,12
C[C@@H]1CN([C@@H](C)CO)C(=O)c2cc(NC(=O)Nc3ccc(F)cc3)ccc2O[C@@H]1CN(C)S(=O)(=O)c1cccs1,161*,-2,.,0
COc1ccc(NC(=O)Nc2ccc3c(c2)[C@H]2C[C@H](CC(=O)N4CCN(C)CC4)O[C@H](CO)[C@H]2O3)cc1,0,-19,.,14
O=C(C[C@@H]1C[C@H]2c3cc(NC(=O)NC4CCCC4)ccc3O[C@H]2[C@H](CO)O1)NCC1CC1,0,16,4,0
COc1ccc2cc3cc(C(=O)NCCC(C)C)oc3nc2c1,0,2,-25,3
COCCNC(=O)c1cc2cc3ccc(OC)cc3nc2o1,0,0,-2,25*
C=C/C=C/[C@@H]1C(=C)CN2[C@H]1[C@H](Cc1ccccc1)OC(=O)[C@@H]2Cc1ccccc1,.,3,-3,5
O=C(NCC1CC1)[C@@H]1[C@@H](CO)[C@@H]2Cn3c(cccc3=O)[C@H]1N2C(=O)c1ccccc1,0,0,.,-5
C[C@H](NC(=O)C[C@H]1C[C@H]2c3cc(NC(=O)NC4CCCC4)ccc3O[C@H]2[C@H](CO)O1)c1ccccc1,0,58,-7,28*

# Six of the entries above in order of the DENV2 CPE rescue value, lowest first.
SMILES	UUG fidelity	DENV2 CPE rescue
COc1ccc([C@H]2CC(=O)C=C(c3ccc(CNC(=O)OC(C)(C)C)cc3)C2)cc1	-25	-9
O=C(NCC1CC1)[C@@H]1[C@@H](CO)[C@@H]2Cn3c(cccc3=O)[C@H]1N2C(=O)c1ccccc1	.	-5
C[C@@H]1CN([C@@H](C)CO)C(=O)c2cc(NC(=O)Nc3ccc(F)cc3)ccc2O[C@@H]1CN(C)S(=O)(=O)c1cccs1	.	0
COc1ccc2cc3cc(C(=O)NCCC(C)C)oc3nc2c1	-25	3
COCCNC(=O)c1cc2cc3ccc(OC)cc3nc2o1	-2	25*
O=C1C=C(c2cccc(Br)c2)C[C@@H](c2ccc(Cl)cc2)C1	-17	32*

# Other entries follow.
SMILES,E-sel inducer,Cneo AK release,UUG fidelity,DENV2 CPE rescue
C[C@@H](NC(=O)C[C@@H]1C[C@H]2c3cc(NC(=O)NC4CCCC4)ccc3O[C@H]2[C@H](CO)O1)c1ccccc1,0,1,-11,2
O=C(Nc1ccc2c(c1)[C@@H]1C[C@@H](CC(=O)N3CCCCC3)O[C@@H](CO)[C@@H]1O2)NC1CCCC1,0,-1,.,10
O=C(Nc1ccc2c(c1)[C@H]1C[C@@H](CC(=O)N3CCCCC3)O[C@H](CO)[C@H]1O2)NC1CCCC1,0,4,.,56*
CO[C@@H]1CN(C)C(=O)c2cc(NS(=O)(=O)Cc3ccccc3)ccc2OC[C@@H](C)NC[C@H]1C,0,-1,.,11
COc1ccc(C(=O)N2c3ccccc3C=CC2C#N)cc1 (centres undefined),91*,.,.,?
O=C(Nc1ccccc1F)N1CCCCN2[C@H](CO)[C@@H](c3ccc(C#Cc4ccccc4)cc3)[C@@H]2C1,0,-1,21,21*
CCC(=O)N1CCCCN2[C@@H](CO)[C@@H](c3ccc(C#Cc4ccccc4F)cc3)[C@@H]2C1,0,0,-3,?
O=C(Nc1ccccc1F)N1CCCCN2[C@H](CO)[C@H](c3ccc(C#Cc4ccccc4)cc3)[C@@H]2C1,-1,0,32,4
CC(=O)N1CCCCN2[C@H](CO)[C@@H](c3ccc(C#Cc4ccccc4F)cc3)[C@H]2C1,0,51,41,24*
Cc1cccc(S(=O)(=O)N2[C@@H]3c4cccc(=O)n4C[C@H]2[C@H](CO)[C@H]3C(=O)NC2CCC2)c1,0,-1,.,1
O=C(NCC1CC1)[C@H]1[C@H](CO)[C@H]2Cn3c(ccc(-c4cccnc4)c3=O)[C@@H]1N2C(=O)C1CCCCC1,0,5,-7,-5
COc1cccc(N2CC(C(=O)Nc3nnc(SCCC4OCCO4)s3)CC2=O)c1 (centres undefined),0,4,-17,93*
CNC(=O)CSc1nnc(NC(=O)C2CC(=O)N(c3ccccc3OC)C2)s1 (centres undefined),-2,3,-25,33*
CO[C@@H]1CN(C)C(=O)c2cc(NC(=O)C3CCC3)ccc2OC[C@@H](C)N(CC2CCCCC2)C[C@H]1C,0,8,-7,-4
C[C@@H]1CN([C@@H](C)CO)C(=O)Cc2cc(NS(C)(=O)=O)ccc2O[C@H]1CN(C)Cc1ccncc1,440*,-9,-15,7

# Two compounds drawn at random from those above:
SMILES,E-sel inducer,Cneo AK release,UUG fidelity,DENV2 CPE rescue
O=C(Nc1ccc2c(c1)[C@@H]1C[C@@H](CC(=O)N3CCCCC3)O[C@@H](CO)[C@@H]1O2)NC1CCCC1,0,-1,.,10
C[C@@H](NC(=O)C[C@@H]1C[C@H]2c3cc(NC(=O)NC4CCCC4)ccc3O[C@H]2[C@H](CO)O1)c1ccccc1,0,1,-11,2

# Continued:
SMILES,E-sel inducer,Cneo AK release,UUG fidelity,DENV2 CPE rescue
Cc1ccc(S(=O)(=O)Nc2ccc3c(c2)CC(=O)N([C@@H](C)CO)C[C@@H](C)[C@H](CN(C)Cc2ccncc2)O3)cc1,1,2,-9,37*
CNC[C@@H]1Oc2ccc(NS(=O)(=O)c3ccc(C)cc3)cc2CC(=O)N([C@@H](C)CO)C[C@H]1C,21,1,-22,13
CNC[C@@H]1Oc2ccc(NS(=O)(=O)c3ccc(C)cc3)cc2CC(=O)N([C@H](C)CO)C[C@H]1C,5,3,-19,42*
O=C(N[C@H](Cc1ccccc1)C(=O)NC1CCCCC1)[C@H]1O[C@@H](n2ccc(=O)[nH]c2=O)[C@H](O)[C@@H]1O,0,.,.,28*
C[C@@H]1CN([C@H](C)CO)C(=O)c2cc(NS(=O)(=O)c3ccccc3)ccc2O[C@H]1CN(C)C(=O)NC1CCCCC1,40*,96*,22,-5
C[C@@H]1CN([C@@H](C)CO)C(=O)c2cc(NS(=O)(=O)c3ccc(F)cc3)ccc2O[C@H]1CN(C)C(=O)NC1CCCCC1,?,-2,-1,35*
C[C@H](CO)N1C[C@H](C)[C@@H](CN(C)C(=O)NC2CCCCC2)Oc2ccc(NS(=O)(=O)c3ccccc3)cc2C1=O,49*!,2,6,0
C[C@H]1CN([C@@H](C)CO)C(=O)c2cc(NS(=O)(=O)c3ccccc3)ccc2O[C@H]1CN(C)C(=O)NC1CCCCC1,-6,-1,-6,4
CO[C@@H]1CN(C)C(=O)c2ccc(NC(=O)C3CCOCC3)cc2OC[C@@H](C)N(Cc2cccnc2)C[C@@H]1C,0,.,.,11
C(/C=C/c1ccccn1)=C\c1ccccc1,.,.,.,6
C(=C(c1ccccc1)c1ccccc1)c1ccccn1,0,11,2,54*
COc1ccc(NC(=O)Nc2ccc3c(c2)C(=O)N([C@@H](C)CO)C[C@@H](C)[C@H](CN(C)S(=O)(=O)c2ccc(Cl)cc2)OCCCC[C@@H](C)O3)cc1,.,-14,-6,36*
COc1ccc(NC(=O)Nc2ccc3c(c2)C(=O)N([C@@H](C)CO)C[C@@H](C)[C@@H](CN(C)S(=O)(=O)c2ccc(F)cc2)OCCCC[C@@H](C)O3)cc1,.,0,-13,30*
O=C(CN1CCN(C(c2ccccc2)c2ccccc2)CC1)N1CCOCC1,.,4,-19,23*

# Assay outcomes (PubChem BioAssay)
